{"source": "paper PMC7693064", "about": "(American Journal of Hematology, 2020)", "key": {"[1]": {"tested_on": "subjects with PNH", "assay": "Hemolytic markers", "type": "in vivo, human", "conditions": "eculizumab treatment before pegcetacoplan"}, "[2]": {"tested_on": "patients with PNH", "conditions": "141 patients with PNH, eculizumab for ≥13 months; cited from earlier work"}, "[3]": {"tested_on": "PNH RBCs", "conditions": "patients with PNH treated with eculizumab; cited from earlier work"}}}
{"substance": "eculizumab: anti‐C5 humanized monoclonal antibody", "values": [{"measurement": "Lactate dehydrogenase levels at baseline", "setting": "[1]", "value": "well controlled"}, {"measurement": "Patients who remained anemic", "setting": "[2]", "value": 72, "unit": "%"}, {"measurement": "Patients who required ≥1 transfusion per year", "setting": "[2]", "value": 36, "unit": "%"}, {"measurement": "Percentage of C3 fragment-positive PNH RBCs, median", "setting": "[3]", "value": 22.6, "unit": "%"}]}
